Assay results as given in ChEMBL document CHEMBL1149193, “Selective optimization of side activities: another way for drug discovery” (J Med Chem, 2004).
pKi: −log10 of the molar value.

The chains behind the UniProt entries cited, without tags or fusion partners.
UniProt P35367, whole entry: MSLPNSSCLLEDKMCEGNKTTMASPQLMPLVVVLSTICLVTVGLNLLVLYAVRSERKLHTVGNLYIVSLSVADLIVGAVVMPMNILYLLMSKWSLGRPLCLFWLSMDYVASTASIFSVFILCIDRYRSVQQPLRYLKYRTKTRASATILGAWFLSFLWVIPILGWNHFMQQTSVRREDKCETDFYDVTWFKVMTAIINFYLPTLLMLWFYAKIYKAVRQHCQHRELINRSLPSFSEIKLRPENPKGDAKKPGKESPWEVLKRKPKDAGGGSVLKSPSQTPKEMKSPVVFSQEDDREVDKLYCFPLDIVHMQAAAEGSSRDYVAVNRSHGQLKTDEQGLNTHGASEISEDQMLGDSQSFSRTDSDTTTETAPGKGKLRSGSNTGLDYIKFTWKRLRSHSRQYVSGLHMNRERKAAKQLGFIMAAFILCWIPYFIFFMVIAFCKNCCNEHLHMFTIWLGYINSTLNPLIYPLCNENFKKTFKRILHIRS

Target: Histamine H1 receptor (Homo sapiens, UniProt P35367)

pKi: 8.47
SMILES: CN(C)CCOC1=Cc2ccccc2Sc2ccc(Cl)cc21 [ZOTEPINE]
